System: LNCaP cells
Experiment: HPLC quantitation of polyamine and acetyl polyamine levels in LNCaP cells
Assay type: cell-based, human
Settings: androgen treated LNCaP cells
From the text: This method is routinely used in the analytical laboratory of the core facility of Cancer Centers and was accessible for quantitative assays necessary for the PK/PD determinations. […] Each data point was an average of two determinations where sample cell pellets were collected from three independent experiments.

N,N′-bis(butadienyl)-1,4-butanediamine [CPC-200]
effect on androgen-induced SSAT gene expression and/or SSAT enzymatic activity: little effect

From patent publication US20110091931A1, “Methods and Kits for Determining Oxygen Free Radical (OFR) Levels in Animal and Human Tissues as a Prognostic Marker for Cancer and Other Pathophysiologies” (COLBY PHARMACEUTICAL COMPANY, priority 2009, published 2011)
